Ab-14 heavy chain CDR variants: yeast mating affinities

Reference: Engelhart et al. 2022, doi:10.1038/s41597-022-01779-4. File: FLAb, binding data.

The target is the same throughout: PDVDLGDISGINAS, from the HR2 region of SARS-CoV-2 spike.

Parent: Ab-14, a human scFv built as VH, a (GGGGS)3 linker, VL. Only the CDRs of the heavy chain vary.
VH: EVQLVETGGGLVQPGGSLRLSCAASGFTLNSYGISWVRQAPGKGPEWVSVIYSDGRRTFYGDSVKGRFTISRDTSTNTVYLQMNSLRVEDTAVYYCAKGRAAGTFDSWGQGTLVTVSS
VL: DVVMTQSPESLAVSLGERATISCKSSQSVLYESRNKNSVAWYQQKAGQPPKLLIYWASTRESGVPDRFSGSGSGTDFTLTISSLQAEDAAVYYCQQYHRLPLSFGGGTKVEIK

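AAYL49 was designed without a model: most single CDR substitutions and a random sample of double and triple ones. AlphaSeq pools MATa yeast showing the antibodies with MATalpha yeast showing the peptide. Mating (16 h, 30 °C) was followed by selection of diploids and sequencing of their barcodes. Scores were corrected for input abundance and mapped to Kd with protein pairs of known affinity run in the same pool. Mating was done three times.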

Each variant is given by its three heavy chain CDRs, as the data file delimits them; those of the parent are GFTLNSYGIS, VIYSDGRRTFYGDSVK, GRAAGTFDS. All variants listed here change F59 of the VH, counted from its first residue. Affinities are written as log10 Kd with Kd in nM; a lower number is a better binder. Replicates are averaged; those with no signal do not enter the mean. A pair that was not seen in any replicate is written "no signal"; this usually means weak binding, but a binder can also be missed.

CDR-H1	CDR-H2	CDR-H3	mean log10 Kd (nM)	seen in
GFLLNSYGIS	VIYSDGRFTCYGDSVK	GRAAGTFDS	2.94	1 of 3
GFTLNSEGIS	VIYSDGRRTLYGDSVK	GRAASTFDS	no signal	0 of 3
DFTLNSYGIS	VIYSDGRRTMRGDSVK	GRAAGTFDS	5.40	1 of 3
GFTLNSYGIS	VIYSDGRRTHYGGSVK	GRAAGTFDS	3.10	2 of 3
GFTLNSYGIS	VIYSDGRRTHYGDSVK	GRARGQFDS	no signal	0 of 3
GFTLNSKGIS	VIYSDSRRTRYGDSVK	GRAAGTFDS	no signal	0 of 3
AFTLNDYGIS	VIYSDGRRTQYGDSVK	GRAAGTFDS	4.05	3 of 3
HFTLNSYGIS	VIYSDGRRTRYGDSCK	GRAAGTFDS	no signal	0 of 3
GFTLNSYGIS	VIYSMGRRTKYGHSVK	GRAAGTFDS	5.50	2 of 3
GFTLNSYGIS	VIYSDGRRTSYGDSCK	GRAAGWFDS	2.85	3 of 3
GFTLNSYGIS	VIYSDGRRKNYMDSVK	GRAAGTFDS	2.53	3 of 3
GFTLNSYGIS	VGYNDGRRTIYGDSVK	GRAAGTFDS	4.10	1 of 3
GFTLNSYGIS	VIYSDGRRTTYGDSVN	GRAAGTHDS	5.33	1 of 3
GFTLNSYGIS	VIYRDGRRTCYGDGVK	GRAAGTFDS	no signal	0 of 3
GFTLNSYGIS	WIYSDGRRTHLGDSVK	GRAAGTFDS	6.02	1 of 3
GFTLNSYGIS	VIASDGRRTGYGDSVK	GRAAGTDDS	3.68	2 of 3
GFTLNSTGCS	VIYSDGRRTNYGDSVK	GRAAGTFDS	no signal	0 of 3
GFTANSYGIS	VIYSDGPRTCYGDSVK	GRAAGTFDS	no signal	0 of 3
GFTLRSYGIS	VIYSDGRRTWYGDSVK	GTAAGTFDS	1.50	3 of 3
GFTLNSYGIS	VIYSDGRRTIIGASVK	GRAAGTFDS	no signal	0 of 3
GFTLNSRGIS	VIYSDGRRTDYGDSVK	GRAEGTFDS	no signal	0 of 3
GFTLNSFGIS	VIYSDGRRTCYGDQVK	GRAAGTFDS	3.77	1 of 3
GFTLNSYGCS	VIYSDGRRTCYGDSVK	GRAAGTFIS	3.69	2 of 3
GFTLNSYGIS	VIYSDGRRTTYGDSVK	GRAMGTFDS	4.46	1 of 3
GFTLNSEGIS	IIYSDGRRTHYGDSVK	GRAAGTFDS	no signal	0 of 3
GFTLNSYGIS	VIYSDGRRTCYGDSVK	GRAVGTFHS	no signal	0 of 3
GFTLNSYWIS	VIYSDGRKTMYGDSVK	GRAAGTFDS	no signal	0 of 3
GFTLNSYGWS	VIYSDGRREPYGDSVK	GRAAGTFDS	5.86	1 of 3
GFTLNSYGLS	VIYSDGRRTSYGDSVK	GRQAGTFDS	1.96	3 of 3
GFTLNSYGIS	VIYVDGRREEYGDSVK	GRAAGTFDS	5.13	1 of 3
GFNLNSYGIS	VIYSDGRRTCYGDSVK	GRRAGTFDS	1.61	3 of 3
GFTLNSYGIS	VIYSDGNRTDYGDSVK	GPAAGTFDS	no signal	0 of 3
GFTLESYGIS	VIYSDGRRTSTGDSVK	GRAAGTFDS	3.42	3 of 3
GFTLNSYGIS	VIYSDGRRTNYGDDVK	GRAWGTFDS	1.64	3 of 3
GFTLNSYGIS	VIYSDKRRTAYGDSVK	GRAGGTFDS	3.79	2 of 3
GFTFNSYGIS	VIYSDGERTYYGDSVK	GRAAGTFDS	2.24	1 of 3
GFTKNSYGIS	VIYSDGRRTSYGDSVK	KRAAGTFDS	3.47	1 of 3
GFTLNSYGPS	VIYSDGRRTAYGDMVK	GRAAGTFDS	no signal	0 of 3
GFTLNSYGIS	VIYSDGIRHTYGDSVK	GRAAGTFDS	2.63	3 of 3
LFTLNSYTIS	VIYSDGRRTIYGDSVK	GRAAGTFDS	no signal	0 of 3
GFTLNSYGIS	VIYSDGRRTDYGDSVK	GRAAGLNDS	3.53	1 of 3
GFTLNSYEIS	VIYSDGRRTIYGDSVK	GRAAGTFDS	no signal	0 of 3
GFTLNSYGIS	VIYSDGRRTGVGDSVK	LRAAGTFDS	no signal	0 of 3
GFTLNSYGIS	VIYSDHRRTWYGDSVK	GRAAMTFDS	4.69	1 of 3
GFTLNSYGIS	VIYSDGRRTMQGDSVK	GRMAGTFDS	3.03	2 of 3
GFTLNSYGIS	VIYSDGRRTDYSDPVK	GRAAGTFDS	3.74	1 of 3
GFTLNSYGIS	VIYSDYRRTTYGDSVK	GRAAGTFDS	no signal	0 of 3
GFTLNSYGIS	VIYSDGRRTWYGDSVK	GRAAVTFDS	0.41	3 of 3
GFTLNSYGIS	HIYSDGRRTLYCDSVK	GRAAGTFDS	no signal	0 of 3
GFTLASYGIT	VIYSDGRRTWYGDSVK	GRAAGTFDS	no signal	0 of 3
GFTLNSYGPS	VIYSDGRRTQYGDSVW	GRAAGTFDS	no signal	0 of 3
GFTLNSYGIS	VIYSDGRRTEYGDSVK	GQAAGTADS	1.59	3 of 3
GFTLNSYGIS	VWYSDGRRTPYGDSVK	GRAAGTFDS	no signal	0 of 3
GFTLNSYPIS	VIYSDGRRTSYGDSVK	GRAAGTFDS	3.73	1 of 3
GFTLNSYGIS	VIKSDGRHTIYGDSVK	GRAAGTFDS	3.20	1 of 3
GFTSNSYGIS	VIYSDGRRTDYGDSVK	GRAAHTFDS	no signal	0 of 3
GFTLNSYGIS	VIYRDGRRTCYGDSVK	GRAAGTFIS	no signal	0 of 3
GFTLNSYGIS	VIYSDCRRTAYGDSVK	GRAAGTVDS	4.70	1 of 3
GFTLNSYGIS	VIYLDGRPTMYGDSVK	GRAAGTFDS	5.49	1 of 3
GFTLNSYGIS	VIYNDGRRTAIGDSVK	GRAAGTFDS	no signal	0 of 3
GFTLNSYGIS	VIYSDGRRTAYGTSVQ	GRAAGTFDS	0.68	3 of 3
GFTLNSYGIS	VIYSDGRRTNYEDSVK	GRAASTFDS	3.71	3 of 3
LFTLNSYGIS	VIYSDGPRTVYGDSVK	GRAAGTFDS	no signal	0 of 3
GNTLNSYGIS	VIYSDGRRTTYGLSVK	GRAAGTFDS	no signal	0 of 3
GFTLNSYGIS	VIYSHGRPTCYGDSVK	GRAAGTFDS	5.92	1 of 3

Excerpt, the first 11 entries:

{"CDR-H1": "GFLLNSYGIS", "CDR-H2": "VIYSDGRFTCYGDSVK", "CDR-H3": "GRAAGTFDS", "mean log10 Kd (nM)": "2.94", "seen in": "1 of 3"}
{"CDR-H1": "GFTLNSEGIS", "CDR-H2": "VIYSDGRRTLYGDSVK", "CDR-H3": "GRAASTFDS", "mean log10 Kd (nM)": "no signal", "seen in": "0 of 3"}
{"CDR-H1": "DFTLNSYGIS", "CDR-H2": "VIYSDGRRTMRGDSVK", "CDR-H3": "GRAAGTFDS", "mean log10 Kd (nM)": "5.40", "seen in": "1 of 3"}
{"CDR-H1": "GFTLNSYGIS", "CDR-H2": "VIYSDGRRTHYGGSVK", "CDR-H3": "GRAAGTFDS", "mean log10 Kd (nM)": "3.10", "seen in": "2 of 3"}
{"CDR-H1": "GFTLNSYGIS", "CDR-H2": "VIYSDGRRTHYGDSVK", "CDR-H3": "GRARGQFDS", "mean log10 Kd (nM)": "no signal", "seen in": "0 of 3"}
{"CDR-H1": "GFTLNSKGIS", "CDR-H2": "VIYSDSRRTRYGDSVK", "CDR-H3": "GRAAGTFDS", "mean log10 Kd (nM)": "no signal", "seen in": "0 of 3"}
{"CDR-H1": "AFTLNDYGIS", "CDR-H2": "VIYSDGRRTQYGDSVK", "CDR-H3": "GRAAGTFDS", "mean log10 Kd (nM)": "4.05", "seen in": "3 of 3"}
{"CDR-H1": "HFTLNSYGIS", "CDR-H2": "VIYSDGRRTRYGDSCK", "CDR-H3": "GRAAGTFDS", "mean log10 Kd (nM)": "no signal", "seen in": "0 of 3"}
{"CDR-H1": "GFTLNSYGIS", "CDR-H2": "VIYSMGRRTKYGHSVK", "CDR-H3": "GRAAGTFDS", "mean log10 Kd (nM)": "5.50", "seen in": "2 of 3"}
{"CDR-H1": "GFTLNSYGIS", "CDR-H2": "VIYSDGRRTSYGDSCK", "CDR-H3": "GRAAGWFDS", "mean log10 Kd (nM)": "2.85", "seen in": "3 of 3"}
{"CDR-H1": "GFTLNSYGIS", "CDR-H2": "VIYSDGRRKNYMDSVK", "CDR-H3": "GRAAGTFDS", "mean log10 Kd (nM)": "2.53", "seen in": "3 of 3"}

Empty control strains, which show no peptide, gave a signal in 15% of pairings with library AAYL49; the median was 4.06 and 95% of these signals were weaker than 2.83. No background was subtracted.